Patent US20180235949A1 (priority 2015, published 2018)

Test system: MDR1-MDCK cells
Assay: MDR1-MDCK permeability and P-gp substrate identification (bi-directional)

efflux (control compound) (in the absence of Cyclosporin A): showing efflux
efflux (control compound) (in the presence of Cyclosporin A): inhibited
Compound: COc1cc2nc(N3CCN(C(=O)c4ccco4)CC3)nc(N)c2cc1OC [prazosin, reference compound]
